# Read-outs that look alike come from different tables or passages of the source.
# By UniProt entry, the sequences of proteins in these tests, tags left out. Residues count along the entry.
# UniProt P56817, 46-501 limits assumed: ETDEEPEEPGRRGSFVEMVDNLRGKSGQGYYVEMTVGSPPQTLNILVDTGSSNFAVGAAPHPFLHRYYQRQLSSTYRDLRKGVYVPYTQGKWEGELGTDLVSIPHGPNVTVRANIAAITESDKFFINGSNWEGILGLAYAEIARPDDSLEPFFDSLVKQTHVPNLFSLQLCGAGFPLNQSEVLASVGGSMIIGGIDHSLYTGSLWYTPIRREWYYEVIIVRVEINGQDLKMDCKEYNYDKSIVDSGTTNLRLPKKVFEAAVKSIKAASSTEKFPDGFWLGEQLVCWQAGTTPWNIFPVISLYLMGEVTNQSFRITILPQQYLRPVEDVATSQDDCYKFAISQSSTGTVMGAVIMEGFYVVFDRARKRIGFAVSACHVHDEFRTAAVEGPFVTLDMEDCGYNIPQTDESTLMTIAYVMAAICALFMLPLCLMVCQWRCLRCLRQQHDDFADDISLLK
# UniProt P02768, 25-609 limits assumed: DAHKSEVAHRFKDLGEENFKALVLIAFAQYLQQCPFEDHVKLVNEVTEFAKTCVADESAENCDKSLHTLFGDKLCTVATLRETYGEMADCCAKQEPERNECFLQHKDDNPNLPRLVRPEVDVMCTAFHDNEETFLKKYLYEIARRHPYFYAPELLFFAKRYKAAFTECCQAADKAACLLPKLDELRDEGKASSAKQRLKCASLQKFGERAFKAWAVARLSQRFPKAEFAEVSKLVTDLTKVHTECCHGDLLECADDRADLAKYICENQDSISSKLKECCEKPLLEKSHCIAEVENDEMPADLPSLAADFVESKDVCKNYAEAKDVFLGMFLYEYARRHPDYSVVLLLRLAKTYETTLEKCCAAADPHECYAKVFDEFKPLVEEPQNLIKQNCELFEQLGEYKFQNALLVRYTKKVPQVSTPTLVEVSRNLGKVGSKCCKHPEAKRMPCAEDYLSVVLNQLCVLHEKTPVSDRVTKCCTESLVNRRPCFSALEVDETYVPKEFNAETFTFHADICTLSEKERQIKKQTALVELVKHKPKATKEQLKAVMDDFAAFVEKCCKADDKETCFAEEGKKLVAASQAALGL
# What was measured:
# Plasma stability assay = conditions: human plasma, 37 °C, 180 min; tested form: HCl
# sAPPβ levels in brain = test: PD of FAH65E(-) in ApoE4-TR:5xFAD mice (brain sAPPβ); conditions: 2 h after last oral dose of 30 mg/kg, in words, tested form: HCl
# [1] = Brain tissue binding assay; conditions: brain homogenate, 2 µM compound; tested form: HCl
# [2] = test system: CHO-7W cells expressing wildtype human APP; test: sAPPβ and Aβ1-42 production in CHO-7W cells (AlphaLISA)
# BACE1 = BACE1 (Homo sapiens, UniProt P56817); test: P5-P5′ BACE1 inhibition assay; assay type: biochemical; conditions: tested form: HCl
# [3] = test system: HEK293T cells stably expressing full-length APP with N-terminal GFP; test: HEK-APP-GFP cell assay; conditions: 1 μM, 48 hours, tested form: HCl
# [4] = PK of FAH65E(-) in ApoE4-TR:5xFAD mice; conditions: tested form: HCl
# [5] = biological target: BACE1 cleavage of MBP-APPC125 substrate (Homo sapiens, UniProt P56817); test: MBP-APPC125 BACE1 cleavage assay; assay type: biochemical; conditions: in words, tested form: HCl
# Kinetic solubility assay = conditions: PBS pH 7.4, 37 °C, 90 min; tested form: HCl
# [6] = biological target: human serum albumin (HSA) (Homo sapiens, UniProt P02768); test: Human serum albumin (HSA) binding assay; conditions: tested form: HCl
# [7] = dose-response, tested form: HCl
smiles,measurement,setting,value
Cc1cc([C@]2(c3cccc(-c4cncnc4)c3)N=C(N)N(C)C2=O)ccc1OC(F)F,Plasma stability t1/2,Plasma stability assay,> 3 h
same,sAPPβ levels in brain,sAPPβ levels in brain,decreased
same,"Brain tissue binding, funbound",[1],5.4%
same,concentrations giving reduction in Aβ1-42,[2]; [7],≥ 25 nM
same,concentrations giving reduction in sAPPβ,[2]; [7],≥ 5 nM
same,EC50,"[2]; read-out: EC50 for sAPPβ reduction, tested form: HCl",25 nM
same,EC50,"[2]; read-out: EC50 for sAPPβ reduction, tested form: HCl, listed as FAH65-E(-)",25 nM
same,IC50,"BACE1; read-out: BACE1 IC50 (P5-P5′ assay; BACE1-APP), cell-free",5 nM
same,IC50,"BACE1; read-out: In vitro IC50, Table S3",< 10 nM
same,GFP signal intensity vs. DMSO,[3],significantly greater
same,Unbound brain concentration at Cmax,"[4]; 30 mkd oral, from brain Fu",9.6 nM
same,time of brain Cmax,"[4]; ApoE4-TR:5xFAD mice, oral 30 mg/kg, after last dose",1 h
same,inhibition of BACE1 cleavage of MBP-APPC125,[5],significantly inhibits
same,inhibition of BACE1 cleavage of MBP-APPC125,[5]; listed as FAH65 E(-),active
same,Kinetic solubility,Kinetic solubility assay,79 µM
same,"Plasma (HSA) binding, funbound",[6],0.49%

# — PMC12491701, “Discovery of an APP-selective BACE1 inhibitor for Alzheimer's disease” (Neurotherapeutics, 2025)
